## scFv variants of Ab-14 (light chain) against a SARS-CoV-2 spike peptide

From the AlphaSeq antibody data of Li et al. 2023 (doi:10.1038/s41467-023-39022-2), copy in the FLAb collection.

Target peptide (SARS-CoV-2 spike, HR2 region): PDVDLGDISGINAS

Parent: Ab-14, a human scFv built as VH, a (GGGGS)3 linker, VL. Only the CDRs of the light chain vary.
VH: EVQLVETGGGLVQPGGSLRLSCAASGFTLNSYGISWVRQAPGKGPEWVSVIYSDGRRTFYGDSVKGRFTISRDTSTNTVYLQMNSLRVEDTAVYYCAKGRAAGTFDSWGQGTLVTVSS
VL: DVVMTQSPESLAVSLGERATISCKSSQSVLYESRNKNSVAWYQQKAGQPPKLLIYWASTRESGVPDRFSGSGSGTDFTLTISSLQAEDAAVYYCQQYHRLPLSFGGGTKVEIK

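The variants were designed computationally from a first round of random CDR variants and then made and measured. Group labels follow the data file (Ctrl: baseline library sampled from a position-specific scoring matrix, with some repeated check sequences; Rand: our label for a block that the file lists under HC and that is probably the random mutants of the ten best first-round binders; En: ensemble of fine-tuned language models; GP: Gaussian process model; HC: hill climbing; Gen: genetic algorithm; Gibbs: Gibbs sampling; a sequence that several methods proposed may carry one label only). The assay is AlphaSeq: two haploid yeast populations carry antibody and antigen on their surface. Binding brings cells together so that they mate, and sequencing counts the barcode pairs among the diploids. A regression on co-assayed BCL2-family reference pairs converts the normalised counts of each replicate to an apparent Kd. There are six technical replicates.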

The parent's light chain CDRs are KSSQSVLYESRNKNSVA, WASTRES, QQYHRLPLS; each variant's own CDRs replace them letter for letter.
Numbers give log10(Kd / nM), so 0 is 1 nM and 3 is 1 µM. Smaller is tighter.
A pair that was not seen in that replicate is written "nd"; this usually means weak binding, but a binder can also be missed.

CDR-L1	CDR-L2	CDR-L3	group	replicates, log10 nM
KLEQSGGYEQRNKNSVA	EASTRED	QQYHRLPLS	GP_Gibbs	-0.06 / 0.02 / -0.38 / -0.30 / -0.26 / 0.08
MVNGETVHQANRDNNIA	EAQLVAA	QDYHRLPFI	En_Gibbs	1.08 / 1.73 / 1.42 / 1.21 / 1.40 / 1.38
KLQQSWLYESRNKNSVA	GASQRES	QQYHRLPLS	GP_Gen	0.11 / 0.08 / -0.33 / -0.32 / -0.24 / -0.41
ILSQMLLTAGNKHNSVA	QANYREA	QQYHRLPLS	En_HC	nd / 0.75 / 0.87 / nd / nd / 2.50
KIMHQHVGNWKTMNNIA	QGDQRCQ	QSYDRLPLS	En_Gibbs	1.14 / 0.19 / 0.79 / 1.27 / 0.52 / 0.61
MLSQVHDYNGYRGNSIA	NVDERNT	QQYKQLPLI	En_Gibbs	0.36 / 0.18 / 0.18 / 0.44 / 0.00 / 0.61
KSSQSVLYESRNKNSVA	DASTREM	QQYHRLPLC	Ctrl	0.46 / 0.23 / 0.20 / 0.27 / 0.00 / 0.23
KLSQSYLYESRNKNNVA	NASTRES	QQYHRLPLS	GP_Gen	1.01 / 0.53 / 0.52 / 0.55 / 0.84 / 1.13
KLEYWADGFGQNDNSVA	HMESVRD	QQYHRLPLA	En_Gibbs	nd / 2.41 / 2.57 / nd / nd / nd
KLSISMLHQSINKHSVA	EVRTRES	QQYDRLPLS	En_HC	1.20 / 1.32 / 1.90 / 0.52 / 1.63 / 1.15
HSSPSVHYESRNKNSVA	NASTREE	QDYHRLPLS	GP_HC	0.14 / 0.16 / -0.29 / -0.20 / -0.04 / 0.32
KFSQVYLYESRNKNSVA	GASTRES	QQYHRLPLS	GP_HC	-0.17 / -0.26 / -0.44 / -0.17 / -0.21 / -0.18
ILQQSVWYESRNKNSVA	DASVRES	QQYHRLPLS	GP_Gibbs	0.68 / 0.55 / 0.31 / 1.04 / 0.62 / 0.71
KLSWSVLFESRNKNSVA	NASTRES	QQYHRLPLS	GP_HC	0.05 / -0.14 / -0.19 / -0.27 / -0.05 / -0.14
TISTSAQTESHNKNSVA	DLNVRGS	QQYDRLPLS	En_HC	0.66 / 0.66 / 0.68 / 0.98 / 0.65 / 0.42
IVSQLMLWGYTAKNSIA	EAETRIN	QQYHRLPLF	En_Gen	0.61 / 0.44 / 0.28 / 0.97 / 0.83 / 0.94
KSSQSVMGEDWNKNSVA	HASVRES	QQYHRLPLM	GP_Gibbs	0.34 / 0.88 / 0.28 / 0.53 / 0.60 / 0.55
KSSQSVLYESRKKNSVA	DASTRES	QQQEVLPLS	Ctrl	0.98 / 0.14 / 1.90 / 0.49 / 0.61 / 0.69
KQSQSVLYENRNKNSVA	DASTRES	QQYHRLPLS	GP_HC	-0.02 / -0.28 / -0.51 / -0.56 / -0.52 / -0.19
TIGQVMHYDSRNKNSVA	QTSTREE	QDYHRLPLS	En_HC	0.65 / 0.23 / 0.49 / 0.40 / 0.28 / 0.37
IVSQLMYWGMHAKNSIA	EAVTRLN	QQYDRLPLF	En_Gen	1.11 / 1.16 / nd / 0.39 / 1.30 / 1.90
KSSQSWLYEDRNKNSVA	GASTRES	QQYHRLPLS	GP_HC	-0.26 / -0.07 / -0.14 / -0.27 / -0.19 / 0.01
KFSQSALYEERMKNSVA	NASQRLS	QQYHRLPLS	GP_Gibbs	0.53 / -0.18 / -0.05 / -0.03 / -0.13 / -0.24
MLSEMLHMLGTKKNSIA	DLVMRAN	QQYHRLPLF	En_Gen	2.16 / nd / nd / nd / 1.83 / 1.80
KSSQSVLQESRNKNSVA	NASTRES	QQYPRLPLS	Ctrl	1.17 / 1.47 / 0.45 / 1.84 / 0.66 / 0.73
MISQLMNLGQFAINSVA	QAEIRNA	QQYDRLPLI	En_Gen	2.90 / 1.07 / nd / 1.98 / 1.26 / 0.90
KLSQSVLYESRNKNSVA	NASTRLK	QQYHRLPLS	GP_Gen	0.09 / 0.15 / 0.09 / 0.05 / 0.15 / 0.25
TVSQVYEMLSRNKNSVA	DMNTRES	QQYDRLPLS	En_HC	0.05 / 0.29 / 0.26 / 0.17 / 0.20 / 0.37
IVSQLMLWGMHASNSIA	EAQTRLN	QQYDRLPLF	En_Gen	2.90 / nd / nd / nd / nd / 2.29
KSGQGALYYSRNKNSVA	GASTRES	QQYHRLPLS	Rand	0.28 / 0.17 / 0.40 / 0.21 / 0.06 / 0.24
MAYGGDMMESVTRNSVA	NAETRAD	QDYHRLPLS	En_HC	0.02 / 0.27 / -0.09 / -0.03 / -0.03 / 0.48
TISQMTSSFSQNINNVA	EVSTRCK	QQYDRLPLA	En_Gen	1.23 / 0.87 / 0.61 / 0.57 / 0.76 / 0.91
KVSQSWLYESRQKNSVA	NASQRES	QQYHRLPLS	GP_Gen	0.46 / 0.39 / 0.49 / 0.18 / 0.66 / 0.41
SVTNETDGNGLKWNSVA	DAAELMT	QDYFRLPLT	En_Gibbs	2.59 / 0.73 / 1.12 / 1.58 / 1.41 / 1.61
KSGGQVLYESRNKNSVA	GASTRES	QQYHRLPLS	GP_HC	0.84 / 0.41 / 0.19 / 0.15 / 0.30 / 0.35
AVDFSHLYESRNKNSVA	NASTREQ	QQYHRLPLS	GP_Gibbs	-0.28 / -0.09 / -0.46 / -0.61 / -0.28 / -0.52
FLAMGSYQKYRHENNIA	EANMRAQ	QQYNRLPFQ	En_Gibbs	0.10 / 0.28 / 0.25 / 0.20 / 0.20 / 0.36
KSSQSVFTESRNKNSVA	FASTRES	QHYHRLPLS	Ctrl	nd / nd / nd / nd / nd / nd
KISQSDLYESLNKNSVA	QASTREY	QQYHRLPLS	Ctrl	nd / 1.50 / nd / nd / 0.73 / 1.35
KVSQSVLYESMNKNSVA	NASTRES	QQYHRLPLS	GP_HC	0.42 / 0.20 / 0.36 / 0.27 / 0.38 / 0.47
FLSQSQLYESRNKNSVA	NGSTRES	QDYHRLPLS	GP_Gibbs	1.22 / 0.49 / 0.58 / 0.57 / 1.16 / 1.05
KSSKSVKFESRNKNSVA	DASTRES	QQYHRLPLS	GP_HC	0.77 / 1.11 / 0.65 / 0.50 / 0.31 / 0.69
KFMMSGEYQMHEQNNIA	QGNIKFK	QQYFRLPIT	En_Gibbs	0.83 / 0.41 / 0.34 / 0.76 / 0.74 / 0.51
HLEQSSLYESRNKNSVA	NASTRCS	QQYHRLPLS	GP_Gibbs	-0.01 / -0.48 / -0.61 / -0.45 / -0.36 / -0.42
KVSQSVLYEDRNKNSVA	DASTRES	QQYHRLPLS	GP_Gen	-0.30 / -0.19 / -0.40 / -0.40 / -0.55 / -0.15
KSSQSTLYESENKNSVA	WASTRES	QQYHRLPLS	Ctrl	1.19 / nd / 1.38 / 1.22 / 1.71 / 1.49
ILSDTVMQGSYYRNSVA	QESTRAD	QQYHRLPLS	En_HC	0.69 / 0.35 / 0.75 / 0.51 / 0.61 / 1.02
KLEDSNRWHLRGTSAVA	QASTRAA	QQYQRLPLL	En_Gibbs	0.77 / 0.41 / 0.45 / 0.13 / 0.38 / 0.41
KSSQVYDYESRNKNSVA	GASTRES	QQYHRLPLS	GP_HC	0.92 / 1.47 / 1.82 / 1.07 / 1.39 / 1.07
QINVNRLMNYLMNNAIA	GKTLRVD	QQYARLPLS	En_Gibbs	1.00 / 1.03 / 2.19 / 0.87 / 2.07 / 1.85

The last 7 entries again:

CDR-L1	CDR-L2	CDR-L3	group	replicates, log10 nM
HLEQSSLYESRNKNSVA	NASTRCS	QQYHRLPLS	GP_Gibbs	-0.01 / -0.48 / -0.61 / -0.45 / -0.36 / -0.42
KVSQSVLYEDRNKNSVA	DASTRES	QQYHRLPLS	GP_Gen	-0.30 / -0.19 / -0.40 / -0.40 / -0.55 / -0.15
KSSQSTLYESENKNSVA	WASTRES	QQYHRLPLS	Ctrl	1.19 / nd / 1.38 / 1.22 / 1.71 / 1.49
ILSDTVMQGSYYRNSVA	QESTRAD	QQYHRLPLS	En_HC	0.69 / 0.35 / 0.75 / 0.51 / 0.61 / 1.02
KLEDSNRWHLRGTSAVA	QASTRAA	QQYQRLPLL	En_Gibbs	0.77 / 0.41 / 0.45 / 0.13 / 0.38 / 0.41
KSSQVYDYESRNKNSVA	GASTRES	QQYHRLPLS	GP_HC	0.92 / 1.47 / 1.82 / 1.07 / 1.39 / 1.07
QINVNRLMNYLMNNAIA	GKTLRVD	QQYARLPLS	En_Gibbs	1.00 / 1.03 / 2.19 / 0.87 / 2.07 / 1.85

The authors' rule: three or more of the six replicates give a measured affinity, fewer mean a poor binder.
The parent sequence was in this pool as ten entries: three were never detected, three once, and four in most replicates, with averages from 0.34 to 2.37.
As a blank, each scFv also met three strains without target: over all light chain designs, 4% of these pairings were detected, typically at 2.64 and seldom below 1.59.
A sequence measured in both rounds can read differently, since the two assays cover different ranges.